## scFv variants of Ab-14 (heavy chain) against a SARS-CoV-2 spike peptide

All variants were tested on one target, the spike HR2 peptide PDVDLGDISGINAS (SARS-CoV-2).

The variants keep the light chain, the linker and the frameworks of Ab-14 (scFv order VH, three GGGGS repeats, VL).
VH: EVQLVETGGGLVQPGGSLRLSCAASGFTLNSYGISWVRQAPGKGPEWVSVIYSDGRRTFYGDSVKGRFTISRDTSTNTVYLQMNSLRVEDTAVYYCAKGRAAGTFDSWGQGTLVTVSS
VL: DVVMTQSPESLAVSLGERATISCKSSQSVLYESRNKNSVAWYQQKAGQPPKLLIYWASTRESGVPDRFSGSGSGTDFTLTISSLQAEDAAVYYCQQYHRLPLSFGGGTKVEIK

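Phage display of a naive human antibody library on the peptide gave the parent. These sequences belong to a second round, designed from the earlier measurements on random variants of the parent. Their group label is 14H_En_Gen (En: ensemble of fine-tuned language models; Gen: genetic algorithm). Affinity was read by AlphaSeq, a pooled yeast mating assay with surface-displayed partners. Mating (16 h, 30 °C) was followed by selection of diploids and sequencing of their barcodes. A regression on co-assayed BCL2-family reference pairs converts the normalised counts of each replicate to an apparent Kd. The assay was run in six technical replicates.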

Variants are written as CDR1, CDR2 and CDR3 of the heavy chain (limits as in the source). Parent: GFTLNSYGIS, VIYSDGRRTFYGDSVK, GRAAGTFDS.
Numbers give log10(Kd / nM), so 0 is 1 nM and 3 is 1 µM. Smaller is tighter.
"n.d." marks a missing value. The strain was present, yet no cells mated with the target were sequenced in that replicate, which points to weak or no binding.
Three control strains display no target. For all heavy chain designs, 1% of the pairings with them gave a signal, with a median of 2.08 and one signal in twenty below 0.84, so weak values seen in few replicates may be background. Also given: how often the same scFv was detected with the empty control strains, with their mean in brackets.
The range of this assay differs from that of the first round, and the authors advise against merging the two.
In the paper, a design with two or fewer of six values counts as a poor binder.

| CDR-H1 | CDR-H2 | CDR-H3 | log10 Kd, replicates | empty controls |
|---|---|---|---|---|
| GFDLNEYGIS | VIYADGKRTAYADSVK | GNVAGTFDE | -0.83 / -0.46 / -1.24 / -0.75 / -0.84 / -0.52 | 0/18 |
| GFDLNEYGIS | VIYADGQRSYYADSVK | GNVAGTFDV | -0.66 / -0.96 / -0.83 / -0.95 / -0.96 / -0.67 | 0/18 |
| GFDLNEYGIS | VIYADGMRTAYSDKVK | GNQAGTFDV | -0.57 / -0.33 / -0.46 / -0.70 / -0.17 / -0.32 | 0/18 |
| GFDLNEYGIS | VIYADGMRTAYSDSVK | GHVAGTFDV | -0.44 / -0.26 / -1.07 / -0.94 / -0.47 / -0.74 | 1/18 (0.46) |
| GFDLNEYGIS | VIYADGVRTAYADDVK | GTNAGTFDM | 0.43 / 0.32 / -0.16 / -0.02 / -0.17 / -0.35 | 0/18 |
| GFDLDEYGIS | VIYADGMRTAYVDSVK | GNVAGTFDM | -0.56 / -0.78 / -0.72 / -0.65 / -0.80 / -0.29 | 0/18 |
| GFDLNEYGIS | VIYADGVRTAYSDSVK | GEVAGTFDL | n.d. / n.d. / n.d. / n.d. / n.d. / n.d. | 0/18 |
| GFDLNEYGIS | VIYADGMRTAYADDVK | GANAGTFDV | -0.60 / -0.39 / -0.88 / -0.74 / -0.67 / -0.16 | 0/18 |
| GFDLNEYGIS | VIYADGVRTAYVDSVK | GNNAGTFDL | -0.50 / -0.80 / -0.95 / -0.47 / -0.32 / -0.71 | 0/18 |
| GFDLNEYGIS | VIYADGKRTAYADNVK | GEVAGTFDT | -0.21 / -0.04 / -0.39 / -0.23 / -0.56 / -0.02 | 0/18 |
| GFDLNEYGIS | VIYADGKRTAYADSVK | GNQAGTFDL | 0.05 / -0.40 / -0.18 / -0.67 / -0.45 / -0.33 | 0/18 |
| GFDLDEYGIS | VIYADGVRTAYSDSVK | GGNAGTFDV | -0.72 / -0.88 / -0.90 / -0.32 / -0.94 / -1.15 | 0/18 |
| GFDLNEYGIS | VIYADGVRKYYADSVK | GNVAGTFDV | -0.82 / -0.98 / -0.51 / -0.67 / -0.98 / -0.39 | 0/18 |
| GFDLNEYGIS | VIYADGMRKAYADSVK | GENAGTFDT | 0.01 / -0.06 / -0.16 / -0.14 / -0.15 / -0.42 | 0/18 |
| GFDLNEYGIS | VIYADGVRTAYADKVK | GNQAGTFDV | -0.24 / -0.07 / 0.06 / -0.53 / -0.44 / -0.26 | 0/18 |
| GFDLNEYGIS | VIYADGLRTAYADSVK | GQVAGTFDV | -0.67 / -0.80 / -1.12 / -1.54 / -1.41 / -1.08 | 0/18 |
| GFDLNEYGIS | VIYADGMRTAYADSVK | GANAGTFDV | -0.29 / -0.44 / -0.53 / -0.67 / -0.40 / -0.34 | 1/18 (1.96) |
| GFDLNEYGIS | VIYADGMRTAYADSVK | GEVAGTFVL | -0.24 / -0.22 / -0.97 / -0.14 / -0.95 / -0.61 | 0/18 |
| GFDLNEYGIS | VIYADGSRTAYADSVK | GNEAGTFDM | 0.57 / 0.59 / 0.12 / 0.12 / 0.16 / -0.08 | 0/18 |
| GFDLNEYGIS | VIYADGRRTAYADSVK | GQNAGTFDV | -0.46 / -0.49 / -0.63 / -0.94 / -0.65 / -0.47 | 0/18 |
| GFDLNEYGIS | VIYADGIRTAYADSVK | GENAGTFDM | -0.28 / -0.10 / -0.45 / -0.06 / -0.27 / -0.29 | 0/18 |
| GFDLNEYGIS | VIYADGRRTAYTDSVK | GNTAGTFDV | -0.18 / -0.68 / -0.76 / -0.48 / -0.52 / -0.40 | 0/18 |
| GFDLNEYGIS | VIYADGRRTAYADSVK | GENAGTFDV | -0.19 / -0.04 / -0.25 / -0.49 / 0.24 / -0.58 | 0/18 |
| GFDLNEYGIS | VIYADGQRKAYADSVK | GEVAGTFDV | 0.34 / 0.52 / -0.17 / 0.51 / 0.33 / 0.37 | 0/18 |
| GFDLNEYGIS | VIYADGMRTAYSDDVK | GNNAGTFDI | -0.32 / -0.25 / -0.42 / -0.04 / -0.35 / -0.15 | 0/18 |
| GFDLNEYGIS | VIYADGMRTFYTDSVK | GEVAGTFDV | -0.06 / -0.60 / 0.29 / -0.48 / -0.49 / 0.15 | 0/18 |
| GFDLNEYGIS | VIYADGRRTAYADSVK | GQNAGTFDT | -0.21 / -0.16 / -0.57 / -0.34 / -0.62 / -0.30 | 0/18 |
| GFDLNEYGIS | VIYADGMRTAYTDDVK | GNVAGTFDL | 1.08 / 3.35 / 2.51 / n.d. / 0.42 / 0.91 | 0/18 |
| GFDLDEYGIS | VIYADGMRTAYANSVK | GNQAGTFDV | -0.19 / -0.39 / -0.15 / 0.06 / -0.60 / -0.22 | 0/18 |
| GFDLNEYGIS | VIYADGKRTAYIDSVK | GENAGTFDI | 0.20 / -0.52 / -0.44 / -0.39 / -0.20 / -0.20 | 0/18 |
| GFDLNEYGIS | VIYADGMRTAYADDVK | GTNAGTFDL | -0.09 / -0.24 / -0.65 / -0.46 / -0.46 / 0.09 | 0/18 |
| GFDLNEYGIS | VIYADGVRTAYSDSVK | GSNAGTFDM | -0.13 / -0.36 / -0.06 / -1.32 / 0.48 / 0.35 | 0/18 |
| GFDLNEYGIS | VIYADGMRTAYTDSVK | GNNAGTFDL | -0.54 / -0.78 / -0.94 / -0.94 / -0.98 / n.d. | 0/18 |
| GFDLNEYGIS | VIYADGVRTFYADSVK | GQVAGTFDV | -0.52 / -0.68 / -0.75 / -0.86 / -0.77 / -0.57 | 0/18 |
| GFDLNEYGIS | VIYADGRRTAYADSVK | GNVAGTFDT | -0.84 / -1.07 / -1.02 / -1.16 / -0.20 / -0.23 | 0/18 |
| GFDLDEYGIS | VIYADGKRTAYSDSVK | GANAGTFDV | -0.31 / -0.41 / -0.60 / -0.37 / -0.50 / -0.34 | 0/18 |
| GFDLDEYGIS | VIYADGVRTAYADSVK | GNQAGTFDM | -0.28 / 0.05 / -0.16 / -0.02 / -0.09 / 0.05 | 2/18 (1.44) |
| GFDLNEYGIS | VIYADGMRTSYSDSVK | GNVAGTFDV | 1.27 / 0.46 / 1.28 / 1.13 / 0.54 / 0.88 | 1/18 (2.10) |
| GFDLNEYGIS | VIYADGVRTQYADSVK | GENAGTFDV | -0.21 / -0.34 / -0.52 / -0.51 / -0.13 / -0.21 | 0/18 |

From the AlphaSeq antibody data of Li et al. 2023 (doi:10.1038/s41467-023-39022-2), copy in the FLAb collection.